The values that follow come from PubChem BioAssay AID624474 (Sanford-Burnham Center for Chemical Genomics, 2012).

Chains of the proteins cited; added tags and fusions are not shown.
UniProt P34707, whole entry: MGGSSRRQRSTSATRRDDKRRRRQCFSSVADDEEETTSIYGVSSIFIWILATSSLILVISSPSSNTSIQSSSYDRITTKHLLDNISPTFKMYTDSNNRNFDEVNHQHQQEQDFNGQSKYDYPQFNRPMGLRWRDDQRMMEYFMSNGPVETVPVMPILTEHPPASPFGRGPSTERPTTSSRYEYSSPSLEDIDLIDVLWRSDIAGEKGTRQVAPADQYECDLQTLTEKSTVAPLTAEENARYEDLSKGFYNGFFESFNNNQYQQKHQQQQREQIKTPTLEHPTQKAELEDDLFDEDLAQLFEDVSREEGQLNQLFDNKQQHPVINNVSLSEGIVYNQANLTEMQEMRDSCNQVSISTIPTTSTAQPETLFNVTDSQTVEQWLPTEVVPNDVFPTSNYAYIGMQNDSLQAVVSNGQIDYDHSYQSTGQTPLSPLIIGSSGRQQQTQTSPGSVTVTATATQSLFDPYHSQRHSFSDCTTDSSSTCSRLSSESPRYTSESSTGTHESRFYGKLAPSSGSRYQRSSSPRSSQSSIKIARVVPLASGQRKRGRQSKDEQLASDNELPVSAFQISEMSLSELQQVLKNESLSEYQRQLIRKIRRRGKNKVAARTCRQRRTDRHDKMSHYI

The target in the assay is Protein skinhead-1 (Caenorhabditis elegans) (UniProt P34707). The experiment in a line: SKN-1 inhibitor hit potency, dose response, fluorescence ratio readout (AID 624474). Particulars: SKN-1 inhibitor fluorescence ratio assay.

Calls of active or inactive are those of the source.

In general, IC50 refers to the concentration needed to halve the response being measured.

With `O=c1[nH]c2ccccc2n1C1CCN(C(c2cccc3ccccc23)c2nnnn2C2CCCC2)CC1` (stereo unspecified), the IC50 is inactive: > 100 µM.
